Source: patent US4479951A, “1.4;3.6-Dianhydrohexitol nitrates substituted by purine bases, processes for their preparation and pharmaceutical compositions” (Dr. Willmar Schwabe GmbH & Co., priority 1980, dated 1984)

Test system: mongrel dogs
Assay: circulatory-pharmacological effectiveness on the narcotised dog, intravenous administration
Type: in vivo

What does the source list for `O=[N+]([O-])O[C@H]1CO[C@H]2[C@@H]1OC[C@H]2O[N+](=O)[O-]`?
APdiast: diastolic aorta pressure (40 min after i.v. 1 mg/kg): 101.2 mm.Hg; APsyst: systolic aorta pressure (40 min after i.v. 1 mg/kg): 158.4 mm.Hg; BFFem: blood flow in the A. femoralis, referred to 20 kg. body weight (40 min after i.v. 1 mg/kg): 42.9 mL/min; HF: heart frequency (40 min after i.v. 1 mg/kg): 108.0 min⁻¹; HLL: heart capacity left, referred to 20 kg. body weight (40 min after i.v. 1 mg/kg): 0.76 W; HLR: heart capacity right, referred to 20 kg. body weight (40 min after i.v. 1 mg/kg): 80.5 mW; HZV: heart minute volume, referred to 20 kg. body weight (40 min after i.v. 1 mg/kg): 3.0 min⁻¹; LVEDP: end diastolic pressure in the left ventricle (40 min after i.v. 1 mg/kg): 7.60 mm.Hg; PAP: average pressure in the A. pulmonalis (40 min after i.v. 1 mg/kg): 14.0 ±1.5 mm.Hg; PRA: pressure in the right atrium (40 min after i.v. 1 mg/kg): 2.34 mm.Hg; SV: beat volume, referred to 20 kg. body weight (40 min after i.v. 1 mg/kg): 27.7 mL; WAP: pulmonalis resistance, referred to 20 kg. body weight (40 min after i.v. 1 mg/kg): 0.28 U; WFem: femoralis resistance, referred to 20 kg. body weight (40 min after i.v. 1 mg/kg): 0.40 KU; WTP: total peripheral resistance, referred to 20 kg. body weight (40 min after i.v. 1 mg/kg): 5.41 U; dp/dt: rate of pressure increase in the left ventricle (40 min after i.v. 1 mg/kg): 2343.7 mm.Hg/sec.; APdiast: diastolic aorta pressure (50 min after i.v. 1 mg/kg): 101.2 mm.Hg; APsyst: systolic aorta pressure (50 min after i.v. 1 mg/kg): 157.5 mm.Hg; BFFem: blood flow in the A. femoralis, referred to 20 kg. body weight (50 min after i.v. 1 mg/kg): 43.9 mL/min; HF: heart frequency (50 min after i.v. 1 mg/kg): 109.2 min⁻¹; HLL: heart capacity left, referred to 20 kg. body weight (50 min after i.v. 1 mg/kg): 0.77 W; HLR: heart capacity right, referred to 20 kg. body weight (50 min after i.v. 1 mg/kg): 81.1 mW; HZV: heart minute volume, referred to 20 kg. body weight (50 min after i.v. 1 mg/kg): 3.0 min⁻¹; LVEDP: end diastolic pressure in the left ventricle (50 min after i.v. 1 mg/kg): 7.60 mm.Hg; PAP: average pressure in the A. pulmonalis (50 min after i.v. 1 mg/kg): 14.0 ±1.6 mm.Hg; PRA: pressure in the right atrium (50 min after i.v. 1 mg/kg): 2.29 mm.Hg; SV: beat volume, referred to 20 kg. body weight (50 min after i.v. 1 mg/kg): 27.4 mL; WAP: pulmonalis resistance, referred to 20 kg. body weight (50 min after i.v. 1 mg/kg): 0.27 U; WFem: femoralis resistance, referred to 20 kg. body weight (50 min after i.v. 1 mg/kg): 0.39 KU; WTP: total peripheral resistance, referred to 20 kg. body weight (50 min after i.v. 1 mg/kg): 5.38 U; dp/dt: rate of pressure increase in the left ventricle (50 min after i.v. 1 mg/kg): 2306.2 mm.Hg/sec.; APdiast: diastolic aorta pressure (60 min after i.v. 1 mg/kg): 101.2 mm.Hg; APsyst: systolic aorta pressure (60 min after i.v. 1 mg/kg): 159.4 mm.Hg; BFFem: blood flow in the A. femoralis, referred to 20 kg. body weight (60 min after i.v. 1 mg/kg): 42.3 mL/min; HF: heart frequency (60 min after i.v. 1 mg/kg): 107.5 min⁻¹; HLL: heart capacity left, referred to 20 kg. body weight (60 min after i.v. 1 mg/kg): 0.78 W; HLR: heart capacity right, referred to 20 kg. body weight (60 min after i.v. 1 mg/kg): 81.9 mW; HZV: heart minute volume, referred to 20 kg. body weight (60 min after i.v. 1 mg/kg): 3.0 min⁻¹; LVEDP: end diastolic pressure in the left ventricle (60 min after i.v. 1 mg/kg): 7.77 mm.Hg; PAP: average pressure in the A. pulmonalis (60 min after i.v. 1 mg/kg): 14.1 mm.Hg; PRA: pressure in the right atrium (60 min after i.v. 1 mg/kg): 2.53 mm.Hg; SV: beat volume, referred to 20 kg. body weight (60 min after i.v. 1 mg/kg): 28.2 mL; WAP: pulmonalis resistance, referred to 20 kg. body weight (60 min after i.v. 1 mg/kg): 0.26 U; WFem: femoralis resistance, referred to 20 kg. body weight (60 min after i.v. 1 mg/kg): 0.41 KU; WTP: total peripheral resistance, referred to 20 kg. body weight (60 min after i.v. 1 mg/kg): 5.32 U; dp/dt: rate of pressure increase in the left ventricle (60 min after i.v. 1 mg/kg): 2250.0 mm.Hg/sec.; APdiast: diastolic aorta pressure (90 min after i.v. 1 mg/kg): 99.4 mm.Hg; APsyst: systolic aorta pressure (90 min after i.v. 1 mg/kg): 163.2 mm.Hg; BFFem: blood flow in the A. femoralis, referred to 20 kg. body weight (90 min after i.v. 1 mg/kg): 44.4 mL/min; HF: heart frequency (90 min after i.v. 1 mg/kg): 109.5 min⁻¹; HLL: heart capacity left, referred to 20 kg. body weight (90 min after i.v. 1 mg/kg): 0.77 W; HLR: heart capacity right, referred to 20 kg. body weight (90 min after i.v. 1 mg/kg): 85.4 mW; HZV: heart minute volume, referred to 20 kg. body weight (90 min after i.v. 1 mg/kg): 3.0 min⁻¹; LVEDP: end diastolic pressure in the left ventricle (90 min after i.v. 1 mg/kg): 7.98 mm.Hg; PAP: average pressure in the A. pulmonalis (90 min after i.v. 1 mg/kg): 14.6 ±1.8 mm.Hg; PRA: pressure in the right atrium (90 min after i.v. 1 mg/kg): 2.53 mm.Hg; SV: beat volume, referred to 20 kg. body weight (90 min after i.v. 1 mg/kg): 27.7 mL; WAP: pulmonalis resistance, referred to 20 kg. body weight (90 min after i.v. 1 mg/kg): 0.27 U; WFem: femoralis resistance, referred to 20 kg. body weight (90 min after i.v. 1 mg/kg): 0.38 KU; WTP: total peripheral resistance, referred to 20 kg. body weight (90 min after i.v. 1 mg/kg): 5.35 U; dp/dt: rate of pressure increase in the left ventricle (90 min after i.v. 1 mg/kg): 2231.2 mm.Hg/sec.; APdiast: diastolic aorta pressure (120 min after i.v. 1 mg/kg): 97.5 mm.Hg; APsyst: systolic aorta pressure (120 min after i.v. 1 mg/kg): 161.2 mm.Hg; BFFem: blood flow in the A. femoralis, referred to 20 kg. body weight (120 min after i.v. 1 mg/kg): 49.3 mL/min; HF: heart frequency (120 min after i.v. 1 mg/kg): 104.2 min⁻¹; HLL: heart capacity left, referred to 20 kg. body weight (120 min after i.v. 1 mg/kg): 0.72 W; HLR: heart capacity right, referred to 20 kg. body weight (120 min after i.v. 1 mg/kg): 81.5 mW; HZV: heart minute volume, referred to 20 kg. body weight (120 min after i.v. 1 mg/kg): 2.9 min⁻¹; LVEDP: end diastolic pressure in the left ventricle (120 min after i.v. 1 mg/kg): 8.34 mm.Hg; PAP: average pressure in the A. pulmonalis (120 min after i.v. 1 mg/kg): 15.0 ±2.0 mm.Hg; PRA: pressure in the right atrium (120 min after i.v. 1 mg/kg): 2.81 mm.Hg; SV: beat volume, referred to 20 kg. body weight (120 min after i.v. 1 mg/kg): 28.1 mL; WAP: pulmonalis resistance, referred to 20 kg. body weight (120 min after i.v. 1 mg/kg): 0.28 U; WFem: femoralis resistance, referred to 20 kg. body weight (120 min after i.v. 1 mg/kg): 0.33 KU; WTP: total peripheral resistance, referred to 20 kg. body weight (120 min after i.v. 1 mg/kg): 5.36 U; dp/dt: rate of pressure increase in the left ventricle (120 min after i.v. 1 mg/kg): 2118.7 mm.Hg/sec.; APdiast: diastolic aorta pressure (150 min after i.v. 1 mg/kg): 95.6 mm.Hg; APsyst: systolic aorta pressure (150 min after i.v. 1 mg/kg): 161.2 mm.Hg; BFFem: blood flow in the A. femoralis, referred to 20 kg. body weight (150 min after i.v. 1 mg/kg): 51.3 mL/min; HF: heart frequency (150 min after i.v. 1 mg/kg): 103.7 min⁻¹; HLL: heart capacity left, referred to 20 kg. body weight (150 min after i.v. 1 mg/kg): 0.74 W; HLR: heart capacity right, referred to 20 kg. body weight (150 min after i.v. 1 mg/kg): 79.7 mW; HZV: heart minute volume, referred to 20 kg. body weight (150 min after i.v. 1 mg/kg): 3.0 min⁻¹; LVEDP: end diastolic pressure in the left ventricle (150 min after i.v. 1 mg/kg): 7.78 mm.Hg; PAP: average pressure in the A. pulmonalis (150 min after i.v. 1 mg/kg): 14.6 ±1.5 mm.Hg; PRA: pressure in the right atrium (150 min after i.v. 1 mg/kg): 3.0 mm.Hg; SV: beat volume, referred to 20 kg. body weight (150 min after i.v. 1 mg/kg): 28.6 mL; WAP: pulmonalis resistance, referred to 20 kg. body weight (150 min after i.v. 1 mg/kg): 0.29 U; WFem: femoralis resistance, referred to 20 kg. body weight (150 min after i.v. 1 mg/kg): 0.32 KU; WTP: total peripheral resistance, referred to 20 kg. body weight (150 min after i.v. 1 mg/kg): 5.22 U; dp/dt: rate of pressure increase in the left ventricle (150 min after i.v. 1 mg/kg): 2025.0 mm.Hg/sec.; APdiast: diastolic aorta pressure (180 min after i.v. 1 mg/kg): 95.6 mm.Hg; APsyst: systolic aorta pressure (180 min after i.v. 1 mg/kg): 161.2 mm.Hg; BFFem: blood flow in the A. femoralis, referred to 20 kg. body weight (180 min after i.v. 1 mg/kg): 53.7 mL/min; HF: heart frequency (180 min after i.v. 1 mg/kg): 103.7 min⁻¹; HLL: heart capacity left, referred to 20 kg. body weight (180 min after i.v. 1 mg/kg): 0.79 W; HLR: heart capacity right, referred to 20 kg. body weight (180 min after i.v. 1 mg/kg): 92.4 mW; HZV: heart minute volume, referred to 20 kg. body weight (180 min after i.v. 1 mg/kg): 3.2 min⁻¹; LVEDP: end diastolic pressure in the left ventricle (180 min after i.v. 1 mg/kg): 7.60 mm.Hg; PAP: average pressure in the A. pulmonalis (180 min after i.v. 1 mg/kg): 15.5 ±1.6 mm.Hg; PRA: pressure in the right atrium (180 min after i.v. 1 mg/kg): 2.81 mm.Hg; SV: beat volume, referred to 20 kg. body weight (180 min after i.v. 1 mg/kg): 30.6 mL; WAP: pulmonalis resistance, referred to 20 kg. body weight (180 min after i.v. 1 mg/kg): 0.31 U; WFem: femoralis resistance, referred to 20 kg. body weight (180 min after i.v. 1 mg/kg): 0.32 KU; WTP: total peripheral resistance, referred to 20 kg. body weight (180 min after i.v. 1 mg/kg): 4.89 U; dp/dt: rate of pressure increase in the left ventricle (180 min after i.v. 1 mg/kg): 2043.7 mm.Hg/sec.; APdiast: diastolic aorta pressure (before i.v. 1 mg/kg (v)): 95.6 mm.Hg; APsyst: systolic aorta pressure (before i.v. 1 mg/kg (v)): 166.9 mm.Hg; BFFem: blood flow in the A. femoralis, referred to 20 kg. body weight (before i.v. 1 mg/kg (v)): 44.9 mL/min; HF: heart frequency (before i.v. 1 mg/kg (v)): 109.5 min⁻¹; HLL: heart capacity left, referred to 20 kg. body weight (before i.v. 1 mg/kg (v)): 0.76 W; HLR: heart capacity right, referred to 20 kg. body weight (before i.v. 1 mg/kg (v)): 85.1 mW; HZV: heart minute volume, referred to 20 kg. body weight (before i.v. 1 mg/kg (v)): 3.03 min⁻¹; LVEDP: end diastolic pressure in the left ventricle (before i.v. 1 mg/kg (v)): 7.69 mm.Hg; PAP: average pressure in the A. pulmonalis (before i.v. 1 mg/kg (v)): 14.3 ±1.2 mm.Hg; PRA: pressure in the right atrium (before i.v. 1 mg/kg (v)): 2.06 mm.Hg; SV: beat volume, referred to 20 kg. body weight (before i.v. 1 mg/kg (v)): 27.7 mL; WAP: pulmonalis resistance, referred to 20 kg. body weight (before i.v. 1 mg/kg (v)): 0.31 U; WFem: femoralis resistance, referred to 20 kg. body weight (before i.v. 1 mg/kg (v)): 0.39 KU; WTP: total peripheral resistance, referred to 20 kg. body weight (before i.v. 1 mg/kg (v)): 5.27 U; dp/dt: rate of pressure increase in the left ventricle (before i.v. 1 mg/kg (v)): 2268.7 mm.Hg/sec.
